Target: T1, Calcium-dependent protein kinase 1 (Cryptosporidium parvum, UniProt Q6S4W0)
T1 sequence (Q6S4W0 whole entry): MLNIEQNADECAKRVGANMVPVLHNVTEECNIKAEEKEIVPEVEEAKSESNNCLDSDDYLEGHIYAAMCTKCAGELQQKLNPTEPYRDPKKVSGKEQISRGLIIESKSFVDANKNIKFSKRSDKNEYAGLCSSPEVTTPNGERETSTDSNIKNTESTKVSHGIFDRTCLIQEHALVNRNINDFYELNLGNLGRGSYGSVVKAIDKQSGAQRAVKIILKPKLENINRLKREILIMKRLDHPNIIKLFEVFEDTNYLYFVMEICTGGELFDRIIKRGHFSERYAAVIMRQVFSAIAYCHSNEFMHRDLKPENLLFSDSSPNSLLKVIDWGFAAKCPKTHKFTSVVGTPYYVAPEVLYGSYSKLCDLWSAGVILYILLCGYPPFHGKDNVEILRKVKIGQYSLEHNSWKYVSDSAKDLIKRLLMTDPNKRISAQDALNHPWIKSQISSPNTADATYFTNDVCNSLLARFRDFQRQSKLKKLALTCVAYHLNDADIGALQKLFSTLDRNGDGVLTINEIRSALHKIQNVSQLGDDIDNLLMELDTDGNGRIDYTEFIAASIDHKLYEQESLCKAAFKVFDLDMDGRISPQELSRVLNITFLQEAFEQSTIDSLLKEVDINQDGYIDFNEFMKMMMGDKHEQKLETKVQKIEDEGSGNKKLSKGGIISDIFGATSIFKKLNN
Assay: Inhibition Assay

Compound `CC(C)(C)n1cc(C(N)=O)c(-c2ccc3c(N)n[nH]c3c2)n1` [US9956214, Compound 28] has an IC50 of 0.42 µM.
